AlphaSeq binding of Ab-14 heavy chain variants to a spike HR2 peptide

The target is the same throughout: PDVDLGDISGINAS, from the HR2 region of SARS-CoV-2 spike.

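In library AAYL49, one, two or three CDR residues were substituted; doubles and triples were drawn at random. The scFvs were displayed on barcoded MATa yeast, the peptide on MATalpha yeast. Binding brings cells together so that they mate, and sequencing counts the barcode pairs among the diploids. Scores were corrected for input abundance and mapped to Kd with protein pairs of known affinity run in the same pool. The assay was run in three technical replicates.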

Parent scFv Ab-14: VH joined to VL by the linker GGGGSGGGGSGGGGS. Changes lie in the heavy chain CDRs alone.
VH: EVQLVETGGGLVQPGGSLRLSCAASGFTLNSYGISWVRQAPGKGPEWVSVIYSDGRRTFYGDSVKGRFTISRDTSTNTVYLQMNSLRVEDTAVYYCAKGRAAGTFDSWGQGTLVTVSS
VL: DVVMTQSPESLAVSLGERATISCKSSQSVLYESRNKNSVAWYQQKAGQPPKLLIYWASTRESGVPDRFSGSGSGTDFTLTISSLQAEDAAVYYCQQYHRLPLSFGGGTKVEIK

Sequences are complete VH domains. Numbers give log10(Kd / nM), so 0 is 1 nM and 3 is 1 µM. Smaller is tighter. "nd" means that the variant was in the library but no mating with the target was seen in that replicate; the authors take this as a sign of poor binding, and no number exists. Nonspecific signal, from three strains lacking the peptide, appeared in 15% of pairings of library AAYL49, centred on 4.06 (5% of these signals below 2.83); values are not corrected for it. The control count says in how many pairings with the empty strains this scFv gave a signal, with their mean in brackets.

VH,"log10 Kd, replicates",empty controls
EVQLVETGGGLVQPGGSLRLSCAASGFTLNSYGISWVRQAPGKGPEWVSVIYWDARRTFYGDQVKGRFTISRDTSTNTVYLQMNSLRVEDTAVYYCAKGRAAGTFDSWGQGTLVTVSS,5.06 nd nd,0 of 9
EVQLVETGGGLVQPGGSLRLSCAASGFMSNSYGISWVRQAPGKGPEWVSVILSDGRRTFYGDSVKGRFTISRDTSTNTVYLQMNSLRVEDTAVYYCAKGRAAGTFDSWGQGTLVTVSS,nd nd nd,1 of 9 (4.81)
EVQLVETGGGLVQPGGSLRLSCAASGFPLNSYGISWVRQAPGKGPEWVSVIYSDGRRTFYGDSRKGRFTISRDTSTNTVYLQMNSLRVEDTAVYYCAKGRAAGTFPSWGQGTLVTVSS,nd 4.71 nd,1 of 9 (4.68)
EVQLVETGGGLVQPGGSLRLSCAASGFTLNSYWISWVRQAPGKGPEWVSVIYWDGRRTFYGDSVKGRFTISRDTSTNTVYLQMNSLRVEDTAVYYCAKGTAAGTFDSWGQGTLVTVSS,nd nd nd,0 of 9
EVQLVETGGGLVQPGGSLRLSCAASGFTLNSYGISWVRQAPGKGPEWVSVIYSDGCRTPYGDSVKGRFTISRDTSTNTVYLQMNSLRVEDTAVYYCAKGRAAGTFDSWGQGTLVTVSS,nd nd nd,1 of 9 (3.98)
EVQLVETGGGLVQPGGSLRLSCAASGFTLNSYGISWVRQAPGKGPEWVSVIYSSGRRTFYGGSVKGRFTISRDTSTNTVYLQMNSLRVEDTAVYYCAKNRAAGTFDSWGQGTLVTVSS,nd nd nd,0 of 9
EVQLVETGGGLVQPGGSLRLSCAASPFTLNSYGIPWVRQAPGKGPEWVSVIYSDGRRTFYGDSVKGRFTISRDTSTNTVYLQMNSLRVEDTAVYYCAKGRAMGTFDSWGQGTLVTVSS,nd nd nd,0 of 9
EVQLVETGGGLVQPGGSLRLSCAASGFTLNSYGISWVRQAPGKGPEWVSVINSDGRRTFYGDSVKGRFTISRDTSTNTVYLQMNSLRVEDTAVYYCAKGRAAGTFMLWGQGTLVTVSS,nd 3.48 3.60,1 of 9 (3.18)
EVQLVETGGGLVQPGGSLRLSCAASGATLNSWGISWVRQAPGKGPEWVSVIYSDGRRTNYGDSVKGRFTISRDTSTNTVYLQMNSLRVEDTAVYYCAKGRAAGTFDSWGQGTLVTVSS,nd nd nd,1 of 9 (2.34)
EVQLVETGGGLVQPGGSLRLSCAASGFTLNSYGISWVRQAPGKGPEWVSVIYSDGRRTFYGDIVKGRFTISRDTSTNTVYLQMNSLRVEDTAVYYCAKGRAAKYFDSWGQGTLVTVSS,nd 3.75 nd,1 of 9 (4.12)
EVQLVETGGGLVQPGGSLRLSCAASGFTLNSYGISWVRQAPGKGPEWVSVIYSDGRRTFNGDPVKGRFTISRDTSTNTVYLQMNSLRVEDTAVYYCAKGRAAGTFDSWGQGTLVTVSS,nd nd nd,0 of 9
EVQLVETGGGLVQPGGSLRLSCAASGFTLNSYGISWVRQAPGKGPEWVSVIYSDLRRSFYGDSVKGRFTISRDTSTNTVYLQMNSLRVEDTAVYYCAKGRAAGTFDYWGQGTLVTVSS,nd nd nd,2 of 9 (3.25)
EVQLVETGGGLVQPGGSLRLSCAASGFYLNSYGDSWVRQAPGKGPEWVSVIYSDGRRTFYGDSVKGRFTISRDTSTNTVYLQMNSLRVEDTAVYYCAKGRAAGTFDSWGQGTLVTVSS,nd nd 4.96,3 of 9 (4.28)
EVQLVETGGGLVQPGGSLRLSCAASGFTVNSYGICWVRQAPGKGPEWVSVIYSDGRVTFYGDSVKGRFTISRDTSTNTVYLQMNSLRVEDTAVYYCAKGRAAGTFDSWGQGTLVTVSS,nd nd nd,0 of 9
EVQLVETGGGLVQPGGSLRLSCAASGFTLNSYGISWVRQAPGKGPEWVSVIYSDGRREFYGDGVKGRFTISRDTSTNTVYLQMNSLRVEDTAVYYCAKGRAAQTFDSWGQGTLVTVSS,nd 2.50 nd,0 of 9
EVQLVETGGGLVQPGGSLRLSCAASGFTLNSYGPSWVRQAPGKGPEWVSVIQSDGRRTFYGDSVKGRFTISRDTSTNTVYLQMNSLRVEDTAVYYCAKGRAAGTFDQWGQGTLVTVSS,nd nd 4.66,4 of 9 (3.78)
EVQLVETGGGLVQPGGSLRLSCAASGFTLNSEGISWVRQAPGKGPEWVSVIYSDGRRTFYGDSVKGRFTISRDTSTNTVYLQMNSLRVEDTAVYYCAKQRAAGTLDSWGQGTLVTVSS,1.35 1.51 1.64,4 of 9 (4.78)
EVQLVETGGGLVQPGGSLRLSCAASGFTINWYGISWVRQAPGKGPEWVSVIYSDGRRTFYGDSVCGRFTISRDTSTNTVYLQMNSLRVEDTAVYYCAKGRAAGTFDSWGQGTLVTVSS,5.51 nd nd,1 of 9 (3.37)
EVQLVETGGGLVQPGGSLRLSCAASGFTLNSYGISWVRQAPGKGPEWVSVIYSHGRRTFYGDSVKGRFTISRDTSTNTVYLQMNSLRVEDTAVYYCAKMWAAGTFDSWGQGTLVTVSS,nd nd nd,1 of 9 (3.11)
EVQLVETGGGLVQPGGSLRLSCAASGFILNRYGISWVRQAPGKGPEWVSVIYSDSRRTFYGDSVKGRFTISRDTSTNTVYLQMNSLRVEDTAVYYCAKGRAAGTFDSWGQGTLVTVSS,nd 4.43 nd,2 of 9 (3.31)

2 of these entries, quoted again:

VH,"log10 Kd, replicates",empty controls
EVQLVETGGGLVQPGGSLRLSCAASGFTLNSYGISWVRQAPGKGPEWVSVIYSDGRRTFNGDPVKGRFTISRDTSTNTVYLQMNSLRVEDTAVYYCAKGRAAGTFDSWGQGTLVTVSS,nd nd nd,0 of 9
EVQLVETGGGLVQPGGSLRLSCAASGFMSNSYGISWVRQAPGKGPEWVSVILSDGRRTFYGDSVKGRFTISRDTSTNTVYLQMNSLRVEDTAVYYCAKGRAAGTFDSWGQGTLVTVSS,nd nd nd,1 of 9 (4.81)

The measurements come from Engelhart et al. 2022 (doi:10.1038/s41597-022-01779-4) through the FLAb antibody collection.